Measurements published in ChEMBL document CHEMBL1154676, “Synthetic mRNA splicing modulator compounds with in vivo antitumor activity” (J Med Chem, 2009).

System: WiDr
Experiment: Cytotoxicity against human WiDr cells after 72 hrs by XTT assay
Type: functional, cell-based
Summary of the method: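 Cells grown at 37 °C, 5% CO2; HFF in DMEM with 10% FBS, PrEC in prostate epithelial growth medium. Adherent lines seeded overnight, suspension lines same day; compounds diluted from DMSO stocks into media at various final concentrations, 72 h exposure. XTT reagent added 4 h, absorbance 490 nm (reference 690 nm). Growth as % of vehicle; IC50 from sigmoidal dose-response fit; mean ± SEM, three independent experiments.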

CC(/C=C/[C@@H]1C[C@]2(CO2)CC(C)(C)O1)=C\C[C@H]1CC[C@@H](NC(=O)/C=C\[C@H](C)OC(=O)N2CCN(C3CCCCCC3)CC2)CC1
IC50: 4 µM
